From PubChem BioAssay AID2696 (Johns Hopkins Ion Channel Center, 2010)

Amino acid sequences for entries named in this document (tags omitted). A change or cut given only in a name is not applied to a line headed by its entry.
UniProt Q61143: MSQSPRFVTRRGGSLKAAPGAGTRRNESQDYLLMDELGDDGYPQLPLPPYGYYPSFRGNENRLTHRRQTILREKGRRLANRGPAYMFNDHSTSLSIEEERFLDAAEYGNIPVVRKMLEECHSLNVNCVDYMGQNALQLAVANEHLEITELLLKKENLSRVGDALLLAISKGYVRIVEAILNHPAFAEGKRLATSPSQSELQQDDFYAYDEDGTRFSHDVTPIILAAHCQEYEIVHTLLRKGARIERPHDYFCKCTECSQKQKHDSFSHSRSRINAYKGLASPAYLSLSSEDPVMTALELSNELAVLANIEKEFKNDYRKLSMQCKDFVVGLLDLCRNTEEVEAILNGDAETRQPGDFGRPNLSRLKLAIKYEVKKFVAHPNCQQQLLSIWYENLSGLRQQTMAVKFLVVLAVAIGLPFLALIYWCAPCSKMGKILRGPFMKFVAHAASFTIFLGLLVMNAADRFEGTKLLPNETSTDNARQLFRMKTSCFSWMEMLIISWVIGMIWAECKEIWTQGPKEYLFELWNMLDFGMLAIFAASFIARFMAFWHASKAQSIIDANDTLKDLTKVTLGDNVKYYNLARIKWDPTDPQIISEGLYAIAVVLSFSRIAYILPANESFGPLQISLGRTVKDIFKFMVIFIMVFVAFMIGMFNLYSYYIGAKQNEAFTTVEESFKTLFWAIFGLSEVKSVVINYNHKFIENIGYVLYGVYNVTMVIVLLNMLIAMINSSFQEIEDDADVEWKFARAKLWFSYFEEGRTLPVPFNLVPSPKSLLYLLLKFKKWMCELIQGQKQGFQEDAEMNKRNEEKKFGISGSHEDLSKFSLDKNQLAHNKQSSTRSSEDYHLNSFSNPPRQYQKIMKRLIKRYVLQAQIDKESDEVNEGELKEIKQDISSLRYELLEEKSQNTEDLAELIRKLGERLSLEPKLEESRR

Target: Short transient receptor potential channel 6 (Mus musculus) (UniProt Q61143)
Experiment: TRPC6 inhibitor potency, dose response, cell-based, mouse TRPC6, HEK293, membrane potential (AID 2696)
Conditions: TRPC6-expressing cells, fluorescence ratio calcium influx

Structure (SMILES) | IC50 [µM]
O=[N+]([O-])c1ccc(O)c(/C=N/Nc2ccc([N+](=O)[O-])cc2[N+](=O)[O-])c1 | 70.8
CN1CCCC(OC(=O)C(c2ccccc2)c2ccccc2)C1 (configuration not stated) | 39.8
